The source of these data is ChEMBL document CHEMBL1933007, “Novel brain penetrant benzofuropiperidine 5-HT₆ receptor antagonists” (Bioorg Med Chem Lett, 2012).

Amino acid sequences for entries named in this document (tags omitted).
UniProt P50406, whole entry: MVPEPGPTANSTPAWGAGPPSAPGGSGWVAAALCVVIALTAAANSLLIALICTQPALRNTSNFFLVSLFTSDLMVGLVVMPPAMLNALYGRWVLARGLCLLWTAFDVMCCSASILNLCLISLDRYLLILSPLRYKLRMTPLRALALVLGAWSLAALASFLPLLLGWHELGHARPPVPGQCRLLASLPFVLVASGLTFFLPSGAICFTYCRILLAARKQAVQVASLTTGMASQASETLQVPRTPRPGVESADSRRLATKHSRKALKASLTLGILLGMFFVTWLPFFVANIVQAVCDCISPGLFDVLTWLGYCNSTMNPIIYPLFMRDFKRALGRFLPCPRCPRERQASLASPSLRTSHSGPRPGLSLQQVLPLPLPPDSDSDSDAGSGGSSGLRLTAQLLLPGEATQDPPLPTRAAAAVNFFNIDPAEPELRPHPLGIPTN

For the assay, the target named is 5-hydroxytryptamine receptor 6 (Homo sapiens, UniProt P50406). The assay is described as follows: Antagonist activity at human recombinant 5-HT6 receptor expressed human astrocytoma cells assessed as inhibition of 5-HT-induced cAMP accumulation after 10 mins preincubation by HTRF assay.

As to `O=S(=O)(c1cccc(F)c1)c1ccc2c3c(oc2c1)C1(CCCOC1)NCC3` (stereo in doubt; 2), the IC50 (in general, the concentration that gives 50% inhibition) was determined as 9.8 nM.
